Earlier results in US8076288B2 (priority 2004, dated 2011).

Sequences of proteins named here, by UniProt entry; tags and fusion partners are left off.
UniProt P32238, whole entry: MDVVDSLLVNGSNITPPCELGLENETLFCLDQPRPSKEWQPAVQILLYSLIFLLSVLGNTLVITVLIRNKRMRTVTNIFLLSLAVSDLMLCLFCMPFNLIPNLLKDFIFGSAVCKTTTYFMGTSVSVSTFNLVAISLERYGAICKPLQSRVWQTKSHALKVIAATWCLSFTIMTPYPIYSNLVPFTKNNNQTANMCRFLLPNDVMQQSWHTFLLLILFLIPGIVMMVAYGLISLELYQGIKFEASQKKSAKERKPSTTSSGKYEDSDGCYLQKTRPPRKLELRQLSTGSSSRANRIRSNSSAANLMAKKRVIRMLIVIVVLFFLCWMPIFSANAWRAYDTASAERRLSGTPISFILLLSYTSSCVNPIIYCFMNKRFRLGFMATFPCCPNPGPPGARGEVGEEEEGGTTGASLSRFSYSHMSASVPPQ

Biological target: pancreatic CCK receptor (Homo sapiens, UniProt P32238)
Details: cited from earlier work

Substance: DY(SO3) MGWMDF-NH2 [CCK-8]
- potency in displacing binding relative to unsulfated CCK-8 or CCK-4: 1000-5000
